# Test system: 3T3-L1 cells
# Assay: Glucose transport assay, uptake of 2-deoxy-D-[3H]glucose in differentiated 3T3-L1 cells
# Format: cell-based, mouse
# Conditions: insulin treatment alone, 100 nM
# Description: The effect of compound 28 on insulin sensitivity was examined as follows. 3T3-L1cells were induced to differentiate in the same manner as described above. A glucose transport assay was performed by measuring uptake of 2-deoxy-D-[3H]glucose as described by Fingar et al. See Fingar et al., Endocrinology 134:728-735. 1.67 μM of the compound or 45 nM of a PPARs agonist, i.e., Avandia, was added to the cells. 10 μM cytochalasin-B was used to measure background glucose uptake levels. 100 nM of insulin was used to stimulate glucose uptake. Insulin treatment alone in differentiated 3T3-L1 cells increased glucose uptake by 20 folds. In the presence of compound 27, glucose uptake was increased by 30 folds.
substance,measurement,value
Insulin,increase of glucose uptake,20 folds
